Read-outs that look alike come from different tables or passages of the source.
Experiments:
[1] = molecular target: T1, cyclin E/CDK2 enzyme (Homo sapiens, UniProt P24941); assay: CDK2 ELISA kinase assay (phospho-Rb ser 795 detection); format: biochemical; details: In Vitro Enzyme Assays
T1 construct: made in house; host or cells: Sf9 insect cells, recombinant baculovirus
Experimental: • 1. High-binding ELISA microtiter plates (Costar) were coated with 40 μl of the kinase substrate (GST fusion of C-terminal fragment of the retinoblastoma susceptibility gene product) diluted to 10 μg/ml in tris-buffered saline (TBS), overnight at 4° C. • 2. Non-specific binding sites were blocked for 1 hour at 4° C. with Superblock in TBS (Pierce), and the plates rinsed with water. • 3. For the screen, 1.5 μl of test compound (200 μg/ml stock in 20% DMSO/20 mM HEPES, pH 7.5) was added to each well. Final dose of the test compound in the assay was 10 ug/ml. […] The kinase reaction (30 μl) was dispensed into each well. Reactions contained 200 μM ATP, 0.5 mg/ml bovine serum albumin (BSA; Sigma), and 0.5 μl partially purified cyclin D1/cdk 4 enzyme*. The enzyme complex is expressed in insect cells (Sf9) infected with recombinant baculovirus and partially purified using ammonium sulfate fractionation. Reaction volumes were adjusted to 30 μl with kinase assay buffer (50 mM HEPES, pH 7.5, 10 mM MgCl2, 5% glycerol, 10 mM 2-mercaptoethanol). • *: For CDK2 assay, 1.0 μl cyclin E/CDK2 enzyme (diluted 1:1000 in kinase assay buffer) was used. The enzyme is isolated from insect cells (Sf9) infected with recombinant baculovirus and partially purified using ammonium sulfate fractionation. For CDK1 assay, 0.08 μl cyclin B/CDK1 enzyme [New England BioLabs; the enzyme is isolated from insect cells (Sf9) infected with recombinant baculovirus carrying human cdc 2 and human cyclin B] was used.
• Hunter, T. and Pines, J. Cyclins and Cancer II: Cyclin D and CDK come of age. Cell 79, 573-582 (1994). • Rao, R. N. Targets for cancer therapy in the cell cycle pathway. Curr. Opinion in Oncol. 8, 516-524 (1996). • 5. Plates were incubated at 30° C. for 1 hour. • 6. The reaction mixture was removed by aspiration and replaced with 250 μl TBS containing 0.1% Tween-20 and 5% nonfat dry milk (blocking buffer). The plates were incubated at 4° C. for 1 hour. • 7. The blocking buffer was removed and replaced with 50 μl of the primary antibody [anti-phospho-Rb ser 795 (New England BioLabs) diluted 1:1000 in blocking buffer]. Incubation was at 4° C. for 16-20 hours. • 8. […] The reaction was stopped by the addition of 2N sulfuric acid (100 μl) and the absorbance values read at 450 nm in a microplate reader (Molecular Devices). […] The percentage of the absorbance value in wells containing the test compound relative to control wells (no test agent) was determined. • 2. IC50 values of selected compounds were determined from inhibition curves, after subtracting background values (no substrate).

Sequences of proteins named here, by UniProt entry; tags and fusion partners are left off.
UniProt P11802, whole entry, species assumed: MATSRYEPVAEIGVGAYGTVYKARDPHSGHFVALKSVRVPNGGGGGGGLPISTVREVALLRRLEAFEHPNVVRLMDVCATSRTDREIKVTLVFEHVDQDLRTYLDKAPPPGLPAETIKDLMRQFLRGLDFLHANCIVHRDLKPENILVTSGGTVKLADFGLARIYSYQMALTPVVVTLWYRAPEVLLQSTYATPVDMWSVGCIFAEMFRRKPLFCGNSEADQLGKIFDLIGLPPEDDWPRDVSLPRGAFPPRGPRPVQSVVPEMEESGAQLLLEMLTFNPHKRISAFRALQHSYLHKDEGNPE
UniProt P06493, whole entry: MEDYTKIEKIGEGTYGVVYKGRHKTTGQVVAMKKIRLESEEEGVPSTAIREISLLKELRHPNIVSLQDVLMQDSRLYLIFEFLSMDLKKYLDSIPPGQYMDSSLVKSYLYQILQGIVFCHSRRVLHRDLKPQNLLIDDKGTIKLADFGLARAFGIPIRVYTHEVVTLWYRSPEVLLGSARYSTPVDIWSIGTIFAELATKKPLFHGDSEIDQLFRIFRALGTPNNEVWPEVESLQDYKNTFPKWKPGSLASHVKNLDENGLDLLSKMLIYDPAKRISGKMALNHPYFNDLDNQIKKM

[2] = system: BT474; assay: Cytotoxicity assay (SRB), BT474; format: cell-based; details: Homo sapiens, BT-474, 144 h, BT474 cells, 6 days, read-out: In Vitro Cellular Activity IC50 BT474
Experimental: (§1) BT474, HCT-116, LoVo and MCF-7 were maintained under 7% CO2 in RPMI 1640 medium supplemented with 10% fetal bovine serum and 50 µg/ml gentamicin.
(§2) Cells were plated in 96-well microtiter dishes (12000 cells/well for BT474, 4000 cells/well for HCT-116, 6000 cells/well for LoVo and 6000 cells/well for MCF-7) in RPMI 1640 medium containing 5% fetal bovine serum and 50 µg/ml gentamicin. The cells were allowed to incubate overnight at 37° C., 7% CO2. Compound dilutions were prepared using the same medium. HCT-116, LoVo and MCF-7 cells were cultured for three days and BT474 cells were cultured for 6 days, in the presence of each compound dilution. Untreated cells were included as controls. The percentage of surviving cells was determined using a protein binding dye (sulforhodamineB, SRB) assay. Cellular protein was precipitated in each well by the addition of 0.05 ml of 50% cold trichloroacetic acid (TCA). After 1 hour, the plates were washed extensively in dH2O and dried. The sulforhodamineB dye solution (0.08 mL of 0.4% SRB in 1% acetic acid) was added to each well, kept at room temperature for ten minutes, then washed in 1% acetic acid and dried. The dye was dissolved in 10 mM Tris-HCl (150 uL) and the absorbency read at 540 nm.

[3] = system: HCT-116; assay: Cytotoxicity assay (SRB), HCT-116; format: cell-based; details: Homo sapiens, HCT-116, 72 h, HCT116 cells, read-out: In Vitro Cellular Activity IC50 HCT116
Experimental: as §1, §2

[4] = system: MCF-7; assay: Cytotoxicity assay (SRB), MCF-7; format: cell-based; details: Homo sapiens, MCF7, 72 h, MCF-7 cells, read-out: In Vitro Cellular Activity IC50 MCF-7
Experimental: as §1, §2

[5] = molecular target: T2, cyclin D1/cdk 4 enzyme (Homo sapiens, UniProt P11802); assay: CDK4 ELISA kinase assay (phospho-Rb ser 795 detection); format: biochemical; details: In Vitro Enzyme Assays, 200 μM ATP
T2 construct: made in house; host or cells: Sf9 insect cells, recombinant baculovirus
Experimental: (§3) • 1. High-binding ELISA microtiter plates (Costar) were coated with 40 μl of the kinase substrate (GST fusion of C-terminal fragment of the retinoblastoma susceptibility gene product) diluted to 10 μg/ml in tris-buffered saline (TBS), overnight at 4° C. • 2. Non-specific binding sites were blocked for 1 hour at 4° C. with Superblock in TBS (Pierce), and the plates rinsed with water. • 3. For the screen, 1.5 μl of test compound (200 μg/ml stock in 20% DMSO/20 mM HEPES, pH 7.5) was added to each well. Final dose of the test compound in the assay was 10 ug/ml. […] The kinase reaction (30 μl) was dispensed into each well. Reactions contained 200 μM ATP, 0.5 mg/ml bovine serum albumin (BSA; Sigma), and 0.5 μl partially purified cyclin D1/cdk 4 enzyme*. The enzyme complex is expressed in insect cells (Sf9) infected with recombinant baculovirus and partially purified using ammonium sulfate fractionation. […]
(§4) • Hunter, T. and Pines, J. Cyclins and Cancer II: Cyclin D and CDK come of age. […] The reaction was stopped by the addition of 2N sulfuric acid (100 μl) and the absorbance values read at 450 nm in a microplate reader (Molecular Devices). […] The percentage of the absorbance value in wells containing the test compound relative to control wells (no test agent) was determined. • 2. IC50 values of selected compounds were determined from inhibition curves, after subtracting background values (no substrate).

[6] = molecular target: T3, cyclin B/CDK1 enzyme (Homo sapiens, UniProt P06493); assay: CDK1 ELISA kinase assay (phospho-Rb ser 795 detection); format: biochemical; details: In Vitro Enzyme Assays
T3 construct: purchased New England BioLabs; host or cells: Sf9 insect cells, recombinant baculovirus
Experimental: as §3, §4

Structure (SMILES)	IC50 ([3]; three days) [nM]	IC50 ([4]; three days) [nM]	further results
CN1CCN(Cc2ccc(N/C=C3\C(=O)NC(=O)c4ccccc43)cc2)CC1 [Example 20]			IC50 [1]: 26000 nM
CC(=O)Oc1ccc(CN/C=C2\C(=O)NC(=O)c3ccccc32)cc1OC(C)=O [Example 47, 2-(Acetyloxy)-4-({[(Z)-(1,3-dioxo-2,3-dihydroisoquinolin-4(1H)-ylidene)methyl]amino}-methyl)phenyl acetate]			IC50 [1]: 18100 nM; IC50 [2]: 20000 nM
CN1CCN(c2ccc(N/C=C3\C(=O)NC(=O)c4ccc(I)cc43)cc2)CC1 [Example 81, (4Z)-6-Iodo-4-({[4-(4-methylpiperazin-1-yl)phenyl]amino}methylene)isoquinoline-1,3(2H,4H)-dione]	2800	2500	
O=C1NC(=O)c2ccc(-c3ccccc3)cc2/C1=C/Nc1ccc(CN2CCCCC2)cc1 [Example 95]	2400	2900	
O=C1NC(=O)c2ccc(-c3ccc(O)cc3)cc2/C1=C/Nc1ccc(CN2CCCCC2)cc1 [Example 103]	1600		
N#Cc1ccc2c(c1)/C(=C/Nc1ccc(CN3CCCCC3)cc1)C(=O)NC2=O [Example 110, (4Z)-1,3-Dioxo-4-({[4-(piperidin-1-ylmethyl)phenyl]amino}methylene)1,2,3,4-tetrahydroisoquinoline-6-carbonitrile]			IC50 [5]: 15800 nM; IC50 [1]: 26500 nM; IC50 [6]: 15800 nM
O=C1NC(=O)c2ccc(Nc3ccccc3)cc2/C1=C/Nc1ccc(CN2CCCCC2)cc1 [Example 128, (4Z)-6-Anilino-4-({[4-(piperidin-1-ylmethyl)phenyl]amino}methylene)isoquinoline-1,3(2H,4H)-dione]	1500	2300	
C[C@@H]1CN(c2ccc(N/C=C3\C(=O)NC(=O)c4ccc(I)cc43)cc2)C[C@H](C)N1 [Example 216, (4Z)-4-({[4-(3,5-Dimethylpiperazin-1-yl)phenyl]amino}methylene)-6-iodoisoquinoline-1,3(2H,4H)-dione]	760	1600	
C[C@@H]1CN(c2ccc(N/C=C3\C(=O)NC(=O)c4ccc(I)cc43)cc2)C[C@H](C)N1C [Example 234, (4Z)-6-Iodo-4-[({4-[(3R,5S)-3,4,5-trimethylpiperazin-1-yl]phenyl}amino)methylene]-isoquinoline-1,3(2H,4H)-dione]	2100	1300	
CC1CN(c2ccc(N/C=C3\C(=O)NC(=O)c4ccc([N+](=O)[O-])cc43)cc2)CC(C)N1 (stereo not shown) [Example 235, (4Z)-4-({[4-(3,5-Dimethylpiperazin-1-yl)phenyl]amino}methylene)-6-nitroisoquinoline-1,3(2H,4H)-dione]			IC50 [1]: 23100 nM
CC1CN(c2ccc(N/C=C3\C(=O)NC(=O)c4ccc(I)cc43)cc2)CCN1C (stereo not shown) [Example 248, (4Z)-4-({[4-(3,4-Dimethylpiperazin-1-yl)phenyl]amino}methylene)-6-iodoisoquinoline-1,3(2H,4H)-dione]		1900	
CN1CCN(c2ccc(N/C=C3\C(=O)NC(=O)c4ccc(-c5ccoc5)cc43)cn2)CC1 [Example 249, (4Z)-6-(3-Furyl)-4-({[6-(4-methylpiperazin-1-yl)pyridin-3-′yl]amino}methylene)isoquinoline-1,3(2H,4H)-dione]	2100	1700	
CN1CCN(c2ccc(N/C=C3\C(=O)NC(=O)c4ccc(-c5ccoc5)cc43)nc2)CC1 [Example 443, (4Z)-6-(3-Furyl)-4-({[5-(4-methylpiperazin-1-yl)pyridin-2-yl]amino}methylene)isoquinoline-1,3(2H,4H)-dione]			IC50 ([3]; 3 days): 760 nM; IC50 ([4]; 3 days): 1600 nM
CN1CCN(c2ccc(NC=C3C(=O)NC(=O)c4ccc(-c5ccccc5)cc43)cc2)CC1 [Example 831, 4-{[4-(4-Methyl-piperazin-1-yl)-phenylamino]-methylene}-6-phenyl-4H-isoquinoline-1,3-dione]			IC50 ([3]; 3 days): 2800 nM; IC50 ([4]; 3 days): 7300 nM
